## Curated experimental data: melting point values

Values as listed in the OPERA 2.9 repository of K. Mansouri.

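OPERA's authors assembled the values from existing databases and did not measure them anew. The files give a single number for a compound and property, which may rest on several reports. Conditions of the individual experiments are not part of the data. The measured form (salt, isomer or mixture) is not always the one drawn. Unmarked limits or estimates from the upstream databases cannot be ruled out.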

The melting point is given in degrees Celsius.
Cells with "n/a" have no entry in this list.

| structure (SMILES) | name | MP (°C) |
|---|---|---|
| ClCc1ncc(-c2ccccc2)o1 | 2-(chloromethyl)-5-phenyl-1,3-oxazole | 64 |
| O=C(O)c1cccc(OCc2ccc(F)cc2)c1 | 3-(4-Fluoro-benzyloxy)-benzoic acid | 144 |
| CC1CCc2c(sc(N)c2C(N)=O)C1 (stereo not drawn) | n/a | 189 |
| O=C(Nc1ccccc1)C(Cl)C(=O)c1ccccc1 (stereo not drawn) | 2-chloro-3-oxo-N,3-diphenylpropanamide | 114 |
| Cc1cc(C(O)(C(F)(F)F)C(F)(F)F)ccc1N | 2-(4-Amino-3-methylphenyl)-1,1,1,3,3,3-hexafluoropropan-2-ol | 135.5 |
| Nc1c(S(=O)(=O)[O-])cc(Nc2ccc(S(=O)(=O)CCOS(=O)(=O)[O-])cc2)c2c1C(=O)c1ccccc1C2=O.[Na+].[Na+] | n/a | 320 |
| Cn1cc([N+](=O)[O-])cc1C(=O)O | 1-Methyl-4-nitro-1H-pyrrole-2-carboxylic acid | 200 |
| COc1ccc(CCNC(N)=S)cc1OC | [2-(3,4-Dimethoxy-phenyl)-ethyl]-thiourea | 160 |
| O=C(CCl)NCC1COc2ccccc2O1 (stereo not drawn) | n/a | 213 |
| CC(C)(C)C(=O)Nc1ccc2nn(C3CCCC3)nc2c1 | n/a | 136 |
| CCOC(=O)C(C[C@]1(CC)CCCN2CCc3c([nH]c4ccccc34)[C@@H]21)C(=O)OCC | n/a | 81 |
| O=C(O)c1ccc(NS(=O)(=O)c2ccc(Br)cc2)cc1 | 4-[(4-Bromobenzene-1-sulfonyl)amino]benzoic acid | 268 |
| ClCc1csc(-c2ccccc2Cl)n1 | 4-(chloromethyl)-2-(2-chlorophenyl)-1,3-thiazole | 56 |
| O=C(O)CCCN1C(=S)CSC1=S | 4-(2,4-dithioxo-1,3-thiazolidin-3-yl)butanoic acid | 123 |
| CCCCC(CC)C(=O)[O-].CCCCC(CC)C(=O)[O-].[Ni+2] (stereo not drawn) | Nickel bis(2-ethylhexanoate) | 50 |
| CC(=O)[O-].CCCCCCCCCCCC[n+]1c(C)cc(N)c2ccccc21 | Laurolinium acetate | 170 |
| N#CCC(=O)c1cc2ccccc2o1 | Benzofuran, 2-cyanoacetyl- | 147 |
| CC(=O)Nc1cccc(S(=O)(=O)Cl)c1 | 3-acetamidobenzene-1-sulfonyl chloride | 79 |
| Cc1ccc(C(=O)CCC(=O)O)s1 | 4-(5-Methylthiophen-2-yl)-4-oxobutanoic acid | 100 |
| O=C(O)c1ccc(OCC(F)(F)F)cc1 | 4-(2,2,2-trifluoroethoxy)benzoic acid | 201 |
| CCCCNc1ccc(S(N)(=O)=O)cc1N | 3-Amino-4-butylamino-benzenesulfonamide | 131 |
| O=[N+]([O-])c1cc(I)ccc1Cl | 1-Chloro-4-iodo-2-nitrobenzene | 72 |
| O=Cc1ccc(-c2ccc([N+](=O)[O-])cc2Cl)o1 | 5-(2-Chloro-4-nitrophenyl)furan-2-carbaldehyde | 137 |
| N=C(N)c1ccc(OCCCCCOc2ccc(C(=N)N)cc2)cc1.O=S(=O)(O)CCO.O=S(=O)(O)CCO | Pentamidine isethionate | 190.5 |
| CC(=O)Oc1ccccc1C(=O)OCC(=O)NCC(N)=O | n/a | 186 |
| CC(C)(C)/C([O-])=C/C(=O)C(F)(F)C(F)(F)C(F)(F)F.CC(C)(C)/C([O-])=C/C(=O)C(F)(F)C(F)(F)C(F)(F)F.CC(C)(C)/C([O-])=C/C(=O)C(F)(F)C(F)(F)C(F)(F)F.[Pr+3] | n/a | 217 |
| Cn1cnnc1S(=O)(=O)O | 4-methyl-4H-1,2,4-triazole-3-sulfonic acid | 171 |
| O=C(O)c1ccc(Oc2ccc(F)cc2)cc1 | 4-(4-Fluorophenoxy)benzoic acid | 172 |
| O=C(Nc1ccccc1)C(Cl)c1ccccc1 (stereo not drawn) | 2-chloro-N,2-diphenylacetamide | 151 |
| Nc1nc2c(s1)CCc1ccccc1-2 | 4,5-Dihydronaphtho[1,2-d][1,3]thiazol-2-amine | 62 |
| O=C(O)Cn1cccn1 | 2-(1H-Pyrazol-1-Yl)Acetic Acid | 140 |
| Cc1ccc(NC(=O)C2CCCNC2)nc1 (stereo not drawn) | N-(5-Methylpyridin-2-yl)piperidine-3-carboxamide | 145 |
| O=CC1CO1 (stereo not drawn) | Glycidaldehyde | -62 |
| Cn1cccc1C(=O)O | N-Methylpyrrole-2-carboxylic acid | 136.5 |
| COC(=O)C(C(=O)OC)c1ccc(C(F)(F)F)cc1[N+](=O)[O-] | Dimethyl [2-nitro-4-(trifluoromethyl)phenyl]propanedioate | 64 |
| Cc1sc2nc(CCl)nc(Cl)c2c1C | n/a | 143 |
| Cc1ccc(-c2n[nH]c(=S)[nH]c2=O)cc1 | n/a | 226 |
| COc1cc(CCC(=O)O)ccc1O | Dihydroferulic acid | 89.5 |
| CC(C)[C@@H](Nc1ccc(C(F)(F)F)cc1Cl)C(=O)O | n/a | 130 |
| O=C(O)c1cc(-c2cccc3ccccc23)nc2ccccc12 | 2-(1-naphthyl)quinoline-4-carboxylic acid | 226 |
| O=C(O)c1cc2c(F)cccc2[nH]1 | 4-Fluoroindole-2-carboxylic acid | 210 |
| COC(=O)Cc1c(C)n[nH]c1C | methyl (3,5-dimethyl-1H-pyrazol-4-yl)acetate | 53 |
| Cc1cc(NN)nc2c(C)cccc12 | 2-hydrazinyl-4,8-dimethylquinoline | 169 |
| O=C(O)c1ccc2noc(-c3ccccc3)c2c1 | 3-Phenyl-benzo[c]isoxazole-5-carboxylic acid | 243 |
| COc1ccc(Nc2n[nH]c(=S)s2)cc1 | 5-(4-Methoxyanilino)-1,3,4-thiadiazole-2(3H)-thione | 185 |
| CCCCCCCCCCOS(=O)(=O)[O-].CCCCCCCCCCOS(=O)(=O)[O-].[Zn+2] | Zinc dodecyl sulfate (1:2) | 144 |
| CC(C)c1ccc2c(c1)C(=O)C(=O)N2 | 5-Isopropyl-1H-indole-2,3-dione | 94 |
| CNC(=O)CCCl | 3-chloro-n-methylpropanamide | 64 |
| O=C1OCCN1c1ccc(O)cc1 | 3-(4-Hydroxyphenyl)-1,3-oxazolidin-2-one | 178 |
| Nc1n[nH]c(-c2ccccc2)n1 | 1H-1,2,4-Triazole, 3-amino-5-phenyl- | 56 |
| Cc1c(C(=O)O)oc2ccc(Br)cc12 | 5-bromo-3-methyl-benzofuran-2-carboxylic Acid | 250 |